Key:
Brain [1] = experiment: Disruption of endocannabinoid metabolism in KIAA1363 deficient Swiss Webster mouse brain assessed as saturated C24:0 fatty acid level per gram of tissue at 100 mg/kg, ip after 4 hrs; settings: route intraperitoneal, strain Swiss Webster
Brain [2] = experiment: Disruption of endocannabinoid metabolism in Swiss Webster mouse brain assessed as saturated C20:0 fatty acid level per gram of tissue at 4 mg/kg, ip after 4 hrs; settings: route intraperitoneal, strain Swiss Webster

## CCOP(=S)(OCC)Oc1nc(Cl)c(Cl)cc1Cl
Brain [1]
  Activity: 2.8 pmol/g

## CCOP(=O)(OCC)Oc1nc(Cl)c(Cl)cc1Cl
Brain [2]
  Activity: 58 pmol/g

— ChEMBL document CHEMBL1221209
